Test results reported in BindingDB's records for doi:10.1021/bi0200514 (Merck Research Laboratories, 2002).
“And” between values parts separate entries of the source, which are not always exact repeats. Equal entries are not always repeated.

Protein sequences, listed by entry. Tags and fused reporters are not part of them. Lines headed by an entry give the natural chain unless they say otherwise; changes in a name come on top. Chains listed by the source or under a name are the forms on record and can include a tag or linker.
UniProt Q969V1: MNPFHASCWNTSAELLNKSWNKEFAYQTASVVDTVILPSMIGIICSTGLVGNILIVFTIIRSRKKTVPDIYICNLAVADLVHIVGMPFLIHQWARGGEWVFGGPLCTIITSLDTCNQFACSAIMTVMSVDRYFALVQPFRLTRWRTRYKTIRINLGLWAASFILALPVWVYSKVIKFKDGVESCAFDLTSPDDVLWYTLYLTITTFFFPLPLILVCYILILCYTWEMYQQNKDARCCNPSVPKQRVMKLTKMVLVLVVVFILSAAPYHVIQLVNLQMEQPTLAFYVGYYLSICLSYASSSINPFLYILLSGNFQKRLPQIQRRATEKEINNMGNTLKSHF
UniProt Q99705, as listed by the source: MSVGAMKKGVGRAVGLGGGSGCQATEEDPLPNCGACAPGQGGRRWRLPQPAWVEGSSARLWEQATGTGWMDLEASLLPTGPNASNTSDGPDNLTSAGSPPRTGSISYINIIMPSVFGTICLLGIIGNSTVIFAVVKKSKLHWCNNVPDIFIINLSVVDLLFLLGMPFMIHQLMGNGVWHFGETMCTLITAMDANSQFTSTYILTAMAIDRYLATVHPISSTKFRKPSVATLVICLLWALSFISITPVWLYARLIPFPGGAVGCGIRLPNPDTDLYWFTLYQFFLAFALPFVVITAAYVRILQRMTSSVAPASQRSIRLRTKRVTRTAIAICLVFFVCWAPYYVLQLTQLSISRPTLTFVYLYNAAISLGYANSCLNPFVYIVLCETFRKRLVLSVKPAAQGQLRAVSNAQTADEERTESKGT

Tests used:
[1] = biological target: Melanin-concentrating hormone receptor 2 (Homo sapiens, UniProt Q969V1)
[2] = biological target: Melanin-concentrating hormone receptor 1 (Homo sapiens, UniProt Q99705)

| Structure (SMILES) | Ki [1] | Ki [2] |
| --- | --- | --- |
| CCCC[C@H]1C(=O)N[C@@H](CC(C)C)C(=O)NCC(=O)N[C@@H](CCCNC(=N)N)C(=O)N[C@@H](C(C)C)C(=O)N[C@@H](Cc2ccc(O)cc2)C(=O)N[C@@H](CCCNC(=N)N)C(=O)N2CCC[C@H]2C(=O)N[C@H](C(N)=O)CSSC[C@H](NC(=O)[C@H](CCCNC(=N)N)NC(C)=O)C(=O)N1C [N-Me-Nle8] | 18 nM | 0.34 nM |
| CSCC[C@@H]1NC(=O)[C@@H](NC(=O)CCCCN=C(N)N)CSSC[C@@H](C(N)=O)NC(=O)CCCCNC(=O)[C@H](Cc2ccc(O)cc2)NC(=O)[C@H](C(C)C)NC(=O)[C@H](CCCN=C(N)N)NC(=O)CNC(=O)[C@H](CC(C)C)NC1=O [Gva6,betaAla14,15] | 34 nM and 64 nM | 14 nM and 53 nM |
| CSCC[C@@H]1NC(=O)[C@@H](NC(=O)[C@H](CCCNC(=N)N)NC(C)=O)CSSC[C@@H](C(N)=O)NC(=O)CCCCNC(=O)[C@H](Cc2ccc(O)cc2)NC(=O)[C@H](C(C)C)NC(=O)[C@H](CCCNC(=N)N)NC(=O)CCCCNC1=O [Ava9,10,Ava14,15] | 49 nM | 65 nM |
| CSCC[C@@H]1NC(=O)[C@@H](NC(=O)CCCCNC(=N)N)CSSC[C@@H](C(N)=O)NC(=O)CNC(=O)CNC(=O)[C@H](Cc2ccc(O)cc2)NC(=O)[C@H](C(C)C)NC(=O)[C@H](CCCNC(=N)N)NC(=O)CNC(=O)[C@H](CC(C)C)NC1=O [Gva6,Gly14,15] | 43 nM | 67 nM |
